From PubChem BioAssay AID743282 (The Scripps Research Institute Molecular Screening Center, 2014)
Only a part is listed here, and it is no random draw. Active and inactive are the calls of the source.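 The calls were made as follows: active = average inhibition above the solvent-only control mean plus 3 SD (cut at about 6% in these data); inactive = the rest.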

Assay: BODIPY product fluorescence quenching artefacts – biochemical, QFRET, 535nm, artefact control for HGIII-sPLA2 inhibitor project, confirmation (AID 743282);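 also: 0% = DMSO with substrate plus product and 100% = DMSO with substrate alone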
Conditions: BODIPY FL product fluorescence interference, at 12.2 µM, stronger effect = higher value

Q: Which inhibition does the source give for `O=[N+]([O-])c1cc(Oc2ccc([N+](=O)[O-])cc2C(F)(F)F)cc([N+](=O)[O-])c1` here?
A: The inhibition was inactive: 2.49%.
